Source: patent US8877944B2, “3-oxo-2,3-dihydro-1H-isoindole-4-carboxamides as PARP inhibitors” (Nerviano Medical Sciences S.R.L., priority 2009, dated 2014)

By UniProt entry, the sequences of proteins in these tests, tags left out. Where a name states a change or a piece, a line headed by the entry shows the natural chain unless it says otherwise.
UniProt Q9UGN5: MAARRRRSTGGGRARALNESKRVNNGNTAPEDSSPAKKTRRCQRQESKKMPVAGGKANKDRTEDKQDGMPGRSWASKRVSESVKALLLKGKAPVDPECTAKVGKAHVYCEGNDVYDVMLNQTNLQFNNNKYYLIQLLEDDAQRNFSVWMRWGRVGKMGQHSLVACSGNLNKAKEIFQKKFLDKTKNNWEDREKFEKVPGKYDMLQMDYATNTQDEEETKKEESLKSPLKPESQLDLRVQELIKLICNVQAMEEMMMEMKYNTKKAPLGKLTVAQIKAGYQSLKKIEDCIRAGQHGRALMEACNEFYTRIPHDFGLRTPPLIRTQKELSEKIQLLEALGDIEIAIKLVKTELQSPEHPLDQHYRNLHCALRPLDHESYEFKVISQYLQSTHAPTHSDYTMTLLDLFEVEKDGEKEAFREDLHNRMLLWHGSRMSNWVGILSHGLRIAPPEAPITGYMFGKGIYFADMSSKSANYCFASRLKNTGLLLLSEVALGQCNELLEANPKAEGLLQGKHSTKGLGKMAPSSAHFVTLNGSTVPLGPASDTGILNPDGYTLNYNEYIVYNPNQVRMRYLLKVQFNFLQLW

Molecular target: PARP-2 FL (Homo sapiens (Human), UniProt Q9UGN5)
Assay: Fluorescence polarization probe displacement assay, PARP-2
Type: binding
Settings: compound P1 as the probe, 250 nM PARP-2

- pKd: > 7.52
Compound: CN(C)CC(=O)Nc1ccc2[nH]c(=O)c3ccccc3c2c1 [PJ34, N-(6-oxo-5,6-dihydro-phenanthridin-2-yl)-N,N-dimethylacetamide, reference compound]

pKd: −log10 of the molar value.
